{
  "sequences": {"note": "By UniProt entry, the sequences of proteins in these tests, tags left out.", "UniProt P31403, whole entry": "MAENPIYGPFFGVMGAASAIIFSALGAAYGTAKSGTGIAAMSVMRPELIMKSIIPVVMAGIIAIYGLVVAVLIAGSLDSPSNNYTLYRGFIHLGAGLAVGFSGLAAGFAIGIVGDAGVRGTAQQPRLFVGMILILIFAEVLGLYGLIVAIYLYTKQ"},
  "source": "paper PMC1190152",
  "about": "“Archazolid and apicularen: Novel specific V-ATPase inhibitors” (BMC Biochemistry, 2005)",
  "origin": "cited, not measured here",
  "target": "T1, V-ATPase holoenzyme from the midgut of the tobacco hornworm (Manduca sexta, UniProt P31403)",
  "T1 construct": "purified V-ATPase holoenzyme from the midgut of the tobacco hornworm; from tissue; host or cells: midgut of fifth instar Manduca sexta larvae",
  "set-up": "method as in PMID 12186879",
  "details": "ref [10], cited from earlier work",
  "data": [
    {"smiles": "CO/C1=C\\C(C)=C\\[C@@H](C)[C@@H](O)[C@@H](C)C/C(C)=C/C=C/[C@H](OC)[C@@H]([C@@H](C)[C@@H](O)[C@H](C)[C@@]2(O)C[C@@H](O)[C@H](C)[C@@H](C(C)C)O2)OC1=O", "note": "[bafilomycin A1, reference compound]", "values": [
      {"measurement": "IC50", "setting": "read-out: half-maximal inhibition concentration of purified V-ATPase", "value": "~10", "unit": "nM"},
      {"measurement": "IC50 per mg of protein, purified V-ATPase", "value": "ca. 0.5 nmol per mg of protein"}
    ]}
  ]
}
